According to patent US6664231B1, “Anti-fungal peptides” (priority 1993, dated 2003):

What was measured:
[1] = tested on: mouse RAW 264.7 cells incubated with E. coli O113 LPS; conditions: RAW 264.7 cells with E. coli O113 LPS; concentration reversing LPS growth inhibition by 50%
mouse RAW 264.7 cells = conditions: RAW 264.7 cell growth inhibited by 50%
[2] = tested on: polyene-resistant (ATCC 38247), 5-fluorocytosine-resistant (ATCC 44373), azole-resistant (ATCC 62342), ketoconazole-resistant (ATCC 64124) C. albicans; experiment: Fungicidal activity on commercially-available drug-resistant Candida strains; format: cell-based, Candida albicans; conditions: ATCC 38247, 44373, 62342, 64124
Description: Further experiments were performed to determine the anti-fungal activity of Domain III derived peptides on commercially-available strains of Candida considered resistant to other anti-fungal agents: polyene-resistant C. albicans (ATCC Accession No. 38247), 5-fluorocytosine-resistant C. albicans (ATCC No. 44373), azole-resistant C. albicans (ATCC No. 62342), and ketoconazole-resistant C. albicans (ATCC No. 64124).

[3] = tested on: Candida albicans SLU-2G amphotericin B-resistant strain; experiment: Radial diffusion assay (Example 3), amphotericin B-resistant strain; format: cell-based; conditions: FIG. 2B
Candida glabrata = experiment: Radial diffusion assay, Candida species (Table 2); format: cell-based
Description: (§1) The anti-fungal activity of Domain III derived peptides was also evaluated in vitro against a variety of fungal species, including Candida glabrata, Candida krusei, Candida lusitaniae, Candida parapsilosis, and Candida tropicalis. For these experiments, one colony of each of the above-listed Candida strains was picked from a Sabouraud's dextrose agar (SDA) plate and inoculated into 5 mL of Sabouraud's dextrose broth (SDB, 2% dextrose and 1% neopeptone) or, for C. krusei, Yeast Malt broth (YM, Becton Dickenson, Cockeysville, Md., cat no. BL 11405) in 12 mL polyproplyene snap-cap tubes. The tube cultures were incubated overnight with shaking at 37° C.
(§2) Cultures were harvested when the OD570 of a 1:10 dilution was greater than or equal to the following values: 0.083 for Candida glabrata, 0.154 for Candida krusei, 0.117 for Candida lusitaniae, 0.076 for Candida parapsilosis, and 0.192 for Candida tropicalis. Cells were centrifuged for 7 minutes in an Eppendorf microfuge at 3,000 rpm (about 1,500 g). The cell pellet was resuspended in 1 mL PBS and approximately 1×10^7 cells in about 0.5 mL were added to 10 mL of cooled underlay agar (3% SBD, 1% agarose, 0.02% Tween 20, 10 mM sodium phosphate buffer, pH 7.4 at about 45° C.). The suspension was poured into square petri plates, allowed to solidify, and wells cut as described above.
(§3) Peptides were two-fold serially diluted with D-PBS from about 20 μL of a starting concentration of approximately 1 mg/mL. Five μL of peptide dilution were added per well and allowed to diffuse for at least about 30 minutes into the agar at […] (to allow complete diffusion). Then 10 mL of molten overlayer agarose (6% SDB, 1% agarose, 10 mM sodium phosphate buffer, pH 7.4 at about 45° C.) were added and the plates were incubated inverted at […] overnight. Plates were stained with a dilute Coomassie solution, inhibition zones were measured with calipers and net areas were calculated, then converted to pmole values by PROBIT analysis.

Candida lusitaniae = experiment: Radial diffusion assay, Candida species (Table 2); format: cell-based
Description: as §1, §2, §3

Candida parapsilosis = experiment: Radial diffusion assay, Candida species (Table 2); format: cell-based
Description: as §1, §2, §3

Candida krusei = experiment: Radial diffusion assay, Candida species (Table 2); format: cell-based
Description: as §1, §2, §3

Candida tropicalis = experiment: Radial diffusion assay, Candida species (Table 2); format: cell-based
Description: as §1, §2, §3

Candida parasilosis = format: cell-based
Description: In additional experiments, a fluorescence-activated cell sorter (FACS) based assay was developed to test the fungicidal activity of the peptides. […] Difco) agar. Several colonies were picked from the agar plate and inoculated into 5 mL of Sabouraud's Dextrose media in a sterile 10 mL polypropylene tube. The fungal cultures were incubated for about 18 hours at 30° C. […] The culture were centrifuged at 3000 rpm for 5 minutes (Sorvall RT 6000B). After centrifugation, the supernatant was decanted leaving the fungal pellets in the centrifuge tubes. The pellets were resuspended in 15 mL of SDB. Both suspensions were combined into one tube and mixed to generate a stock culture. […] After determining the concentration of the stock, appropriate dilutions were made with Sabouraud's Dextrose media to obtain 100 mL of 1×10^6 cell/mL. […] After the 1 hour incubation, all the tubes were centrifuged at 3000 rpm for 5 minutes. […] Louis, Mo.) in Dulbecco's PBS (DPBS, GIBCO, Grand Island, N.Y.) except the autofluorescence control, which was resuspended in DPBS alone. The tubes were mixed and incubated in the dark at room temperature for at least 20 minutes. […] The settings were adjusted appropriately to the following approximate parameters: Cells were analyzed (10,000 cells/tube) and their respective fluorescence determined. […] The population of dead (i.e., propidium iodide stained) fungal cells was determined by a fluorescence threshold between the negative control and positive control.

Row | Structure (SMILES) | In Vitro LPS Neutralization EC50 [1] [µg/mL] | IC50 (toxicity/growth inhibition of peptide) (mouse RAW 264.7 cells) | Fungicidal activity on resistant strains [2] | pmol for a 30 mm^2 zone of inhibition against SLU-2G [3] [pmol] | Anti-fungal activity: pmol/30 mm^2 zone, Candida glabrata (Candida glabrata) | Anti-fungal activity: pmol/30 mm^2 zone, Candida lusitaniae (Candida lusitaniae) | Anti-fungal activity: pmol/30 mm^2 zone, Candida parapsilosis (Candida parapsilosis) | Anti-fungal activity: pmol/30 mm^2 zone, Candida krusei (Candida krusei) | Anti-fungal activity: pmol/30 mm^2 zone, Candida tropicalis (Candida tropicalis) | Candida parasilosis IC50 (Candida parasilosis) [µg/mL]
1 | CC[C@H](C)[C@H](NC(=O)[C@H](CC(C)C)NC(=O)[C@H](Cc1c[nH]c2ccccc12)NC(=O)[C@H](CCCCN)NC(=O)[C@@H](NC(=O)[C@H](CCCCN)NC(=O)[C@H](CO)NC(=O)[C@@H](N)CCCCN)C(C)C)C(=O)N[C@@H](CCC(N)=O)C(=O)N[C@@H](CC(C)C)C(=O)N[C@@H](Cc1ccccc1)C(=O)N[C@@H](Cc1c[nH]cn1)C(=O)N[C@@H](CCCCN)C(=O)N[C@@H](CCCCN)C(N)=O [XMP.97] | 3.69 ± 0.46 | >25 µg/mL | not reduced | 161 | 1,786 pmol/30 mm^2 zone | 900 pmol/30 mm^2 zone | 868 pmol/30 mm^2 zone | 907 pmol/30 mm^2 zone | 193 pmol/30 mm^2 zone | –
2 | CC[C@H](C)[C@H](NC(=O)[C@H](CC(C)C)NC(=O)[C@H](Cc1ccccc1)NC(=O)CNC(=O)[C@@H](NC(=O)[C@H](CCCCN)NC(=O)[C@H](CO)NC(=O)[C@@H](N)CCCCN)C(C)C)C(=O)N[C@@H](CCC(N)=O)C(=O)N[C@@H](CC(C)C)C(=O)N[C@@H](Cc1ccccc1)C(=O)N[C@@H](Cc1c[nH]cn1)C(=O)N[C@@H](CCCCN)C(=O)N[C@@H](CCCCN)C(N)=O [XMP.127] | 10.77 ± 1.34 | NA (NA for IC50 means no evidence of decreased RAW cell growth at up to 50 μg/ml) | not reduced | 116 | 779 pmol/30 mm^2 zone | 551 pmol/30 mm^2 zone | 711 pmol/30 mm^2 zone | 878 pmol/30 mm^2 zone | 373 pmol/30 mm^2 zone | –
3 | CC[C@H](C)[C@H](NC(=O)[C@H](CC(C)C)NC(=O)[C@H](Cc1c[nH]c2ccccc12)NC(=O)[C@H](CCCCN)NC(=O)[C@@H](N)CCCCN)C(=O)N[C@@H](CCC(N)=O)C(=O)N[C@@H](CC(C)C)C(=O)N[C@@H](CCCCN)C(=O)N[C@@H](CCCCN)C(N)=O [XMP.327] | 11.92 ± 0.09 | NA (NA for IC50 means no evidence of decreased RAW cell growth at up to 50 μg/ml) | – | – | >6,295 pmol/30 mm^2 zone | 120 pmol/30 mm^2 zone | 119 pmol/30 mm^2 zone | 3,327 pmol/30 mm^2 zone | 2,598 pmol/30 mm^2 zone | –
4 | CC[C@H](C)[C@H](NC(=O)[C@H](CC(C)C)NC(=O)[C@H](Cc1c[nH]c2ccccc12)NC(=O)[C@H](CCCCN)NC(=O)[C@H](CCCCN)NC(C)=O)C(=O)N[C@@H](CCC(N)=O)C(=O)N[C@@H](CC(C)C)C(=O)N[C@@H](CCCCN)C(=O)N[C@@H](CCCCN)C(N)=O [XMP.331] | 14.11 ± 0.35 | NA (NA for IC50 means no evidence of decreased RAW cell growth at up to 50 μg/ml) | – | – | b (No detectable activity up to 5 μg/well) | 1,500 pmol/30 mm^2 zone | 1,451 pmol/30 mm^2 zone | >5,467 pmol/30 mm^2 zone | b (No detectable activity up to 5 μg/well) | –
5 | CC[C@H](C)[C@H](NC(=O)[C@H](CC(C)C)NC(=O)[C@H](Cc1c[nH]c2ccccc12)NC(=O)[C@@H](CCCCN)NC(=O)[C@H](N)CCCCN)C(=O)N[C@@H](CCC(N)=O)C(=O)N[C@@H](CC(C)C)C(=O)N[C@H](CCCCN)C(=O)N[C@H](CCCCN)C(N)=O [XMP.342] | >50 | – | – | – | – | – | – | – | – | –
6 | CC[C@@H](C)[C@@H](NC(=O)[C@@H](CC(C)C)NC(=O)[C@@H](Cc1c[nH]c2ccccc12)NC(=O)[C@H](N)CCCCN)C(=O)N[C@H](CCC(N)=O)C(=O)N[C@H](CC(C)C)C(=O)N[C@H](Cc1ccccc1)C(=O)N[C@H](Cc1c[nH]cn1)C(=O)N[C@H](CCCCN)C(=O)N[C@H](CCCCN)C(N)=O [XMP.365] | – | – | – | – | – | – | – | – | – | 7.72
7 | CC[C@@H](C)[C@@H](NC(=O)[C@@H](CCC(N)=O)NC(=O)[C@@H](CC(C)C)NC(=O)[C@@H](Cc1ccccc1)NC(=O)[C@@H](Cc1c[nH]cn1)NC(=O)[C@@H](CCCCN)NC(=O)[C@H](N)CCCCN)C(=O)N[C@H](CC(C)C)C(=O)N[C@H](Cc1c[nH]c2ccccc12)C(=O)N[C@H](CCCCN)C(N)=O [XMP.367] | – | – | – | – | – | – | – | – | – | 2.32
8 | CC[C@H](C)[C@H](NC(=O)[C@H](CC(C)C)NC(=O)[C@H](Cc1c[nH]c2ccccc12)NC(=O)[C@H](CCCCN)NC(C)=O)C(=O)N[C@@H](CCC(N)=O)C(=O)N[C@@H](CC(C)C)C(=O)N[C@@H](Cc1ccccc1)C(=O)N[C@@H](Cc1c[nH]cn1)C(=O)N[C@@H](CCCCN)C(=O)N[C@@H](CCCCN)C(N)=O [XMP.373] | – | – | – | – | – | – | – | – | – | 3.74
9 | CC[C@H](C)[C@H](NC(=O)[C@H](CC(C)C)NC(=O)[C@H](Cc1c[nH]c2ccccc12)NC(=O)CNC(=O)[C@@H](N)CCCCN)C(=O)N[C@@H](CCC(N)=O)C(=O)N[C@@H](CC(C)C)C(=O)N[C@@H](Cc1ccccc1)C(=O)N[C@@H](Cc1c[nH]cn1)C(=O)N[C@@H](CCCCN)C(=O)N[C@@H](CCCCN)C(N)=O [XMP.389] | – | – | – | – | – | – | – | – | – | 5.36
10 | CC[C@H](C)[C@H](NC(=O)[C@H](CC(C)C)NC(=O)[C@H](Cc1c[nH]c2ccccc12)NC(=O)CNC(=O)[C@@H](NC(=O)[C@@H](N)CCCCN)C(C)C)C(=O)N[C@@H](CCC(N)=O)C(=O)N[C@@H](CC(C)C)C(=O)N[C@@H](Cc1ccccc1)C(=O)N[C@@H](Cc1c[nH]cn1)C(=O)N[C@@H](CCCCN)C(=O)N[C@@H](CCCCN)C(N)=O [XMP.391] | – | – | – | – | – | – | – | – | – | 0.85
